## Apparent affinities of Ab-14 variants for a coronavirus HR2 peptide

Source: Li et al. 2023 (doi:10.1038/s41467-023-39022-2), MIT Lincoln Laboratory and A-Alpha Bio; data file from the FLAb repository.

Antigen: PDVDLGDISGINAS, a 14-residue peptide of the SARS-CoV-2 spike HR2 region.

Ab-14 is the parent antibody, in scFv form: VH, then the linker GGGGSGGGGSGGGGS, then VL. The heavy chain is unchanged in all variants.
VH: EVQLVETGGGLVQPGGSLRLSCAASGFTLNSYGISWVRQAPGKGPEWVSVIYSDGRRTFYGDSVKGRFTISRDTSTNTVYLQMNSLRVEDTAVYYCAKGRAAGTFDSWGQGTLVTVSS
VL: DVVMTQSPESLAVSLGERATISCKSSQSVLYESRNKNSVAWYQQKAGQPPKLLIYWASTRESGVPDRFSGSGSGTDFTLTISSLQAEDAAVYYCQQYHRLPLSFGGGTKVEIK

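Phage display of a naive human antibody library on the peptide gave the parent. The variants were designed computationally from a first round of random CDR variants and then made and measured. Several design methods are mixed in this list. In AlphaSeq, yeast of one mating type display the scFv and yeast of the other type display the target. Pairs that bind mate more often; barcode pairs of the diploids are counted by sequencing. The ratio of observed to expected reads was calibrated, replicate by replicate, on BCL2-family standards whose Kd was known from biolayer interferometry. The assay was run in six technical replicates.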

Variants are written as CDR1, CDR2 and CDR3 of the light chain (limits as in the source). Parent: KSSQSVLYESRNKNSVA, WASTRES, QQYHRLPLS. This list holds designs with at most six substitutions. The Kd shown is the geometric mean over detected replicates; a lower Kd is a better binder. "no signal" means that the variant was in the library but no mating with the target was seen in any replicate; the authors take this as a sign of poor binding, and no number exists.

- DFEQSWLYESRNKNSVA, GASTRES, QQYHRLPLS = 310 pM (6 of 6 replicates; controls 0 of 18)
- KQSQSVLYESRNKNSVA, MASTRES, QQYHRLPLM = 50 nM (5 of 6 replicates; controls 0 of 18)
- KSIQSVLYESRNKNSVA, WVSTRVS, QQYHRLPLS = 730 nM (1 of 6 replicates; controls 0 of 18)
- KLSQSVLYEMRNKNSVA, NASQRES, QQYHRLPLS = 520 pM (6 of 6 replicates; controls 3 of 18)
- KLQQSELYESRNKNSVA, NASTRMS, QQYHRLPLS = 500 pM (6 of 6 replicates; controls 0 of 18)
- KSSQSTLYGSRNKNSVA, NADTRES, QQYHRLCLP = no signal (0 of 6 replicates; controls 1 of 18)
- KSEQSVLYESTNKNSVA, WASTAES, QQYHRLPTS = no signal (0 of 6 replicates; controls 1 of 18)
- KLPQSWLYESRNKNSVA, EASTRES, QQYHRLPLS = 710 pM (6 of 6 replicates; controls 1 of 18)
- KLSQSTLYESRNKNSVA, QASTRES, QQYHRLPLS = 1.2 nM (6 of 6 replicates; controls 1 of 18)
- KISQSVLYESRNKNSVA, DASTRES, QQYQRLPLS = 350 pM (6 of 6 replicates; controls 1 of 18)
- KHEEGVWYESRNKNSVA, EASTRES, QQYHRLPLS = 9.1 nM (6 of 6 replicates; controls 0 of 18)
- KSDQSVLYESRNCNSVA, WASTRES, QQYHRLPLS = 320 nM (4 of 6 replicates; controls 1 of 18)
- KSQQSVLYESRNKNSVA, WASTRES, QQYHRLPLS = 150 nM (6 of 6 replicates; controls 3 of 18)
- KSEQSQEYESRNKNSVA, NASTRED, QQYHRLPLS = 7.3 nM (6 of 6 replicates; controls 1 of 18)
- KVSQSVLYESRMKNSVA, DASTRCS, QQYHRLPLM = 1.7 nM (6 of 6 replicates; controls 1 of 18)
- KISQWYWYESRNKNSVA, QASTREV, QQYHRLPLS = 1.5 nM (6 of 6 replicates; controls 1 of 18)
- KCSWSVLFESRNKNSVA, DASTRSS, QQYHRLPLS = 1.3 nM (6 of 6 replicates; controls 1 of 18)
- KLSQSWDYESRNKNSVA, NASQRES, QQYHRLPLS = 1.2 nM (6 of 6 replicates; controls 0 of 18)
- KLSQSVLYESRNANSVA, GASTRES, QQYHRLPLS = 1.2 nM (6 of 6 replicates; controls 0 of 18)
- KQSQSVLQESRNKNSVA, NASTRES, QQYHRLPLS = 2.5 nM (6 of 6 replicates; controls 1 of 18)
- KSSISCLYESENKNSVA, EASQRES, QQYHRLPLS = 8.2 nM (6 of 6 replicates; controls 2 of 18)
- KSSQSVLGEQRNCNSVA, DASTRES, QQYHRLPLS = 4.2 nM (6 of 6 replicates; controls 2 of 18)
- QLSQSVLYESRNKNSVA, NASQRES, QQYHRLPLS = 840 pM (6 of 6 replicates; controls 1 of 18)
- KLSQSVLYESRMKNSVA, NASTRSS, QQYHRLPLS = 570 pM (6 of 6 replicates; controls 0 of 18)
- KLSVSVLYESRNKNSVA, YASTRES, QQYHRLPLS = 3.3 nM (6 of 6 replicates; controls 2 of 18)
- KLSQSDLYESRNKNSVA, NASTREE, QQYHRLPLS = 1.0 nM (6 of 6 replicates; controls 1 of 18)
- KLSQSHLYESRNKNSVA, NASTRES, QQYHRLPLM = 1.5 nM (6 of 6 replicates; controls 1 of 18)
- KLDQSELYESRNKNSVA, NASQRES, QQYHRLPLS = 590 pM (6 of 6 replicates; controls 2 of 18)
- KQPQSVLVESRNKNSVA, DASTRES, QQYHRLPLS = 1.1 nM (6 of 6 replicates; controls 0 of 18)
- KYSQSVGYESRNKNSVA, WASTRES, QQYHRYPLS = no signal (0 of 6 replicates; controls 0 of 18)
- KLSQLWLYESRNKNSVA, NASTRES, QQYHRLPLS = 730 pM (6 of 6 replicates; controls 0 of 18)

The range of this assay differs from that of the first round, and the authors advise against merging the two. The authors' rule: three or more of the six replicates give a measured affinity, fewer mean a poor binder. Three control strains display no target. For all light chain designs, 4% of the pairings with them gave a signal, with a median of 430 nM and one signal in twenty below 38 nM, so weak values seen in few replicates may be background. Also given: how often the same scFv was detected with the empty control strains.